Test results reported in ChEMBL document CHEMBL5726154, “Substituted heterocyclic derivative, preparation method and use thereof” (2019).
pIC50: −log10 of the molar value.

Target: T1, N-acylethanolamine-hydrolyzing acid amidase (Homo sapiens, UniProt Q02083)
T1 sequence (Q02083 whole entry): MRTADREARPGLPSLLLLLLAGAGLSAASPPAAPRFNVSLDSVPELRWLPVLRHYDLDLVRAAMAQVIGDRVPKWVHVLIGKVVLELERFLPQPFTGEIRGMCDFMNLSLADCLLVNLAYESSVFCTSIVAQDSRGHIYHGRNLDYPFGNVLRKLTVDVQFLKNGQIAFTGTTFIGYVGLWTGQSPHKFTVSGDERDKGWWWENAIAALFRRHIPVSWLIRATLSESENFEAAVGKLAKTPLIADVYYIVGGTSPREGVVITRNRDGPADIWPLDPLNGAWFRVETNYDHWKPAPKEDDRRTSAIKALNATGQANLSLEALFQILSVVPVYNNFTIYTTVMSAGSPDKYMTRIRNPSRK
Assay: Determining Endocannabinoid Hydrolase Activity: In the Experimental example, endocannabinoid hydrolases used were Fatty Acid Amide Hydrolase (FAAH) and N-acylethanolamide hydrolyzing acid amidase (NAAA), which were prepared by the method described in the document (PMCID: PMC3423427, PMC3723234, PMC2692831, PMC3382457). The preparation method was as followed: a plasmid (pCDNA3.1/NAAA or pCDNA3.1/FAAH) carrying a whole NAAA/FAAH gene was constructed, wherein the plasmid carried Cytomegalovirus (CMV) promoter and Neomycin selectable gene; the plasmid was transformed into HEK-293 cell via lipid medium, stable cell lines expressing NAAA/FAAH at a high level were obtained by G418 screening and Western-blot method. HEK-293 recombinant cells were cultured and collected, washed with PBS for 2-3 times, and ultrasonically treated in 20 mM Tris-HCl containing 0.32 M sucrose, then repeatedly frozen and thawed twice, and then centrifuged at 4° C., 800 g for 15 min. The supernatant (i.e., the desired protein) was collected, the protein concentration was determined by BCA method, and the protein was diluted to a concentration of 1 mg/mL, and sub-packaged and stored in a refrigerator at −80° C. for further use.In the Experimental example, PBS solution used was prepared as followed: 8 g NaCl, 0.2 g KCl, 1.44 g Na2HPO4, and 0.24 g KH2PO4 were dissolved in 1 L ultrapure water, and the resultant solution was subjected to moist heat sterilization and stored at 4° C.30 μL (1 mg/mL) endocannabinoid hydrolase was added to a sample vial, and 2 μL DMSO (Blank control group) or a different concentration of a test compound (Compounds 1-46 prepared in the Examples according to the invention) was further added. The reaction was carried out at 37° C. for 10 min. 170 μL buffer (the buffer consisted of 50 mM disodium Hydrogen Phosphate, 0.1% Triton X-100, 3 mM DTT, 150 μL) containing enzymatic hydrolysis substrate (the substrate was a heptadecenoyl ethanolamine containing a double bond and 17 carbon atoms, abbreviated as 17:1 FAE) was further added, wherein the concentration of 17:1 FAE was 5 μM. The reaction was carried out at 37° C. for 30 min, and 200 μL methanol solution containing internal standard (the internal standard was margaric acid, at a concentration of 1 nmol) was then added to stop the reaction. LC-MS was used to determine the yield of the hydrolysate 17:1 FA (i.e., a heptadecenoic acid containing a double bond) of 17:1 FAE, then a graph was plotted with Graphpad Prism 5. Thereby, the IC50 of the test compound on endocannabinoid hydrolase was determined.By the method above, the inhibitory effects of the Compounds 1-46 prepared in the invention on NAAA and FAAH were determined.

**Q.** How did the pIC50 turn out when O=C(Cc1cccc(OCc2ccccc2)c1)N1CCOC1=O was run?
**A.** Its pIC50 is 4.19.

**Q.** O=C(CCCCCc1ccc(O)c(O)c1)N1CCOC1=O was tested. Which pIC50 did it give?
**A.** The pIC50 was 7.57.

**Q.** O=C(CCCCCn1ccc(=O)[nH]c1=O)N1CCOC1=O was tested. Which pIC50 did it give?
**A.** Its pIC50 is 4.80.

**Q.** With O=C(Cc1ccc(-c2ccccc2)cc1)N1CCOC1=O as the compound, how does the pIC50 read?
**A.** Its pIC50 is 4.26.

**Q.** With O=C(Cc1cccc(-c2ccccc2)c1)N1CCOC1=O as the compound, how does the pIC50 read?
**A.** The pIC50 was 4.10.
